# In ChEMBL document CHEMBL1130557, “Synthesis and biological evaluation of 14-alkoxymorphinans. 14.1 14-ethoxy-5-methyl substituted indolomorphinans with opioid receptor selectivity” (Bioorg Med Chem Lett, 1997):
# Chains of the proteins cited; added tags and fusions are not shown.
# UniProt P42866, whole entry: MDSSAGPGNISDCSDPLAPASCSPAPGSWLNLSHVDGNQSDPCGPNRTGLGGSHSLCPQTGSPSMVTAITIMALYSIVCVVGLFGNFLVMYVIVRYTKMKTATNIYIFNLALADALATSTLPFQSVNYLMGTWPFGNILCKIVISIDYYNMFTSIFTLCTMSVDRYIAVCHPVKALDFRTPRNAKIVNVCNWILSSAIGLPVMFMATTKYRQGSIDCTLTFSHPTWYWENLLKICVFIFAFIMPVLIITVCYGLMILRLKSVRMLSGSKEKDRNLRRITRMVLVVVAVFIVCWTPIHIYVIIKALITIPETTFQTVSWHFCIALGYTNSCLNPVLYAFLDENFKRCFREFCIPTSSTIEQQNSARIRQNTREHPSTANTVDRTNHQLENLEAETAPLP
# UniProt P32300, whole entry: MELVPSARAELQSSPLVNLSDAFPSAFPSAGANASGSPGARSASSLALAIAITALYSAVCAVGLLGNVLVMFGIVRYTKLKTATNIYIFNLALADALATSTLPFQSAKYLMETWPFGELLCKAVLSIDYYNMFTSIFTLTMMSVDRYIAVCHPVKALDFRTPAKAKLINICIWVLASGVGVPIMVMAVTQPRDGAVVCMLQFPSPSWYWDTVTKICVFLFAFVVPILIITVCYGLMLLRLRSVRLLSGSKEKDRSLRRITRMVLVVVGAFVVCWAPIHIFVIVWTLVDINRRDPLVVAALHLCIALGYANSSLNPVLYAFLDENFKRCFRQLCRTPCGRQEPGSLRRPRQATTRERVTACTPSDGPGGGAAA
# Tests used:
# [1] = molecular target: Mu-type opioid receptor (Mus musculus) (UniProt P42866)
# [2] = molecular target: Delta-type opioid receptor (Mus musculus) (UniProt P32300)
smiles,measurement,setting,value
CCO[C@@]12Cc3c([nH]c4ccccc34)[C@]3(C)Oc4c(O)ccc5c4[C@@]31CCN(CC1CC1)C2C5,Ke,[1],133 nM
same,Ke,[2],1.3 nM
